Results reported in US4608390A, “Lipoxygenase inhibiting compounds” (Abbott Laboratories, priority 1985, dated 1986).
pIC50: −log10 of the molar value.

Biological target: T1, 5-lipoxygenase (Rattus norvegicus, UniProt P12527)
T1 construct: 20,000×G supernatant from 7.5×10^6 homogenized RBL-1 cells; endogenous in cells; host or cells: RBL-1 cells (20,000xG supernatant of homogenate)
T1 sequence (P12527 1-673): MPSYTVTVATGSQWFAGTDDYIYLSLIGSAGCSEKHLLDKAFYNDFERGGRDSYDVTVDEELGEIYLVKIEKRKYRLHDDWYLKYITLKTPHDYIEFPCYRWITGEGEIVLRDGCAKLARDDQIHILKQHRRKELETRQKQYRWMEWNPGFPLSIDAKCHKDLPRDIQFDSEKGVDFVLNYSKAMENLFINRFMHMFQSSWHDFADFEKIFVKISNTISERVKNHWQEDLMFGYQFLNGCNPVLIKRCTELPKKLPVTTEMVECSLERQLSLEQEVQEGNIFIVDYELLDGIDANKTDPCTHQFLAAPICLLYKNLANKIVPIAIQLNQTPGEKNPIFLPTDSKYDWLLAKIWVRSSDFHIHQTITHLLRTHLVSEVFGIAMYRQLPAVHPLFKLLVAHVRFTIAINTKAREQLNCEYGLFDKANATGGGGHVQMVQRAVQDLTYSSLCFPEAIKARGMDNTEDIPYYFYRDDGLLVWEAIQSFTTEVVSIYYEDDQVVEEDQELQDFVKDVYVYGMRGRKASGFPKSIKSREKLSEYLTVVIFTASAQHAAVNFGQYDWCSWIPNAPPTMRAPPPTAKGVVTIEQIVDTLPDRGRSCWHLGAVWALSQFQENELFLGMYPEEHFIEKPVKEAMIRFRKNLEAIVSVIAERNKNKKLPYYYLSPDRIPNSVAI
Test: 5-Lipoxygenase IC50 determination (20,000×G supernatant of homogenized RBL-1 cells, radiolabeled arachidonic acid)
Type: biochemical
Settings: RBL-1 cell 20,000×G supernatant
Experimental: Reactions were initiated by the addition of radiolabeled arachidonic acid and terminated by acidification and ether extraction. Reaction products were separated from nonconverted substrate by thin layer chromatography and measured by liquid scintillatiton spectroscopy. Inhibition of 5-lipoxygenase activity was calculated as the ratio of the amounts of product formed in the presence and absence of inhibitor. […]

Row | pIC50 | Compound
1 | 5.74 | CN(O)C(=O)C(=Cc1ccc2ccccc2c1)c1ccc(Br)cc1 [Example 11, N-methyl-3-(2-naphthyl)-2-(4-bromophenyl)acrylohydroxamic acid]
2 | 6.52 | CN(O)C(=O)C=Cc1cc2ccccc2cc1[N+](=O)[O-] [Example 13, N-methyl-3-(3-nitro-2-naphthyl)acrylohydroxamic acid]
